System: OSCCs
Test: 4-hour 51Cr release cytotoxicity / ADCC assay against OSCCs
Type: cell-based, human
Protocol: The target cells (5×10^5) were labeled with 50 μCi ^51Cr (Perkin Elmer, Santa Clara, Calif.) and chromated for 1 hour. Following incubation, target cells were washed once to remove excess unbound ^51Cr. Cells were resuspended in 1×10^6/mL and the treated with the anti-MICA/MICB antibody or Cetaximab (3 μg/mL) and incubated for 30 minutes. Following incubation, target cells were washed again to remove excess unbound antibody and ^51Cr. Labeled target cells were culture with effector cells and the cytotoxicity against target cells were assessed using ^51Cr release cytotoxicity assay.
^51Cr Release Cytotoxicity Assay ^51Cr was purchased from Perkin Elmer (Santa Clara, Calif.). Standard ^51Cr release cytotoxicity assays were used to determine NK cell cytotoxic function in the experimental cultures. […] After a 4-hour incubation period, the supernatants were harvested from each sample and counted for released radioactivity using the gamma counter. Total (containing ^51Cr labeled target cells) and spontaneous (supernatants of target cells alone) release values were measured and used to calculate the percentage specific cytotoxicity. The percentage specific cytotoxicity was calculated using the following formula: […]
Lu30/10^6 is calculated by using the inverse of the number of effector cells needed to lyse 30% of target cells×100.

Cetaximab: antibody against EGFR receptor
ADCC against antibody treated OSCCs by expanded NK cells (expanded NK and IL2-reactivated expanded NK cells, day 15): did not mediate ADCC
NK cell cytotoxicity against antibody treated vs untreated OSCCs (ADCC) (untreated and IL-2 treated primary NK cells): higher levels of cytotoxicity
